{
  "source": "patent US4238620A",
  "about": "“Dibenz[b,f]oxepin and dibenzo[b,f]thiepin derivatives, process for preparation thereof, method of using the same, and compositions thereof” (priority 1978, dated 1980)",
  "tested_on": "rats",
  "assay": "Overall comparison of lethal toxicity (Test 5)",
  "type": "in vivo",
  "experimental": "(a) Single administration in rats\nThe mortality was observed on the 7th day after single administration of test compounds, and LD50 -value was calculated according to the method of Litchfield and Wilcoxon.\n(b) Repeated administrations in rats\nTest compounds were orally administered once daily for 5 days, and LD50 -value was calculated from the mortality on the 6th day.",
  "data": [
    {"smiles": "Cc1ccc2c(c1)CC(=O)c1cc(CC(=O)O)ccc1O2", "note": "[compound B, 8-Methyl-10,11-dihydro-11-oxodibenz[b,f]oxepin-2-acetic acid]", "values": [
      {"measurement": "toxicity relative to indomethacin", "setting": "fraction of that of indomethacin", "value": "about 1/18"},
      {"measurement": "toxicity compared with indomethacin (in words)", "setting": "vs indomethacin", "value": "far weaker than those of indomethacin"}
    ]}
  ]
}
